Test results taken from US10927155B2, “Dual inhibitory action peptidomimetic inhibitor for IL-33 and IL-1beta” (GEORGE MASON UNIVERSITY, priority 2015, dated 2021).

System: IL-1β/IL-1R1 dependent signaling
Assay: HEK-Blue IL-33/IL-1β reporter cells (SEAP) stimulated with IL-1β
Format: cell-based
Details: cytokine used instead of IL-1 as stimulus; FIG. 15
Source text: HEK-Blue™ IL-33/IL-1β cells were purchased from InvivoGen. These cells were transfected with a reporter gene, secreted embryonic alkaline phosphatase (SEAP), under the control of the IFN-β minimal promoter fused to five NF-κB and five AP-1 binding sites. In the presence of bioactive IL1β and/or IL33, HEK-Blue cells activate the NF-κB and AP-1 pathways triggering the production of SEAP. SEAP activity in cell supernatant is quantified using a colorimetric enzyme assay (QUANTI-Blue™, InvivoGen).
HEK Blue IL-33/IL-1β Reporter Cells. HEK-Blue™ IL-33/IL-1β Cells were purchased from InvivoGen. These cells were generated by transfection with a reporter gene, secreted embryonic alkaline phosphatase (SEAP), under the control of the IFN-β minimal promoter fused to five NF-κB and five AP-1 binding sites. In the presence of bioactive IL-1β and/or IL-33, HEK-Blue cells activated the NF-κB and AP-1 pathways triggering the production of SEAP. SEAP activity in cell supernatant was quantified using a colorimetric enzyme assay (QUANTI-Blue™, InvivoGen). HEK Blue cells were grown in DMEM, 4.5 g/l glucose, 2 mM L-Glutamine, 10% (v/v) heat-inactivated fetal bovine serum (30 min at 56° C.). After two passages, cells were exposed to selective medium (DMEM, 4.5 g/l glucose, 2 mM L-Glutamine, 10% heat-inactivated FBS (v/v) with of blasticidin (30 μg/ml), hygromycin B ([…]), and Zeocin™ (100 mg/ml)). […]

“IL-2: cytokine specificity control [reference compound]” was tested. Which “signaling activity of cytokine specificity controls” value did it give?
The value was “no significant signaling activity”.
